Biological target: membrane-bound ligands (TGF-alpha and Epiregulin) on HT-29 cells
Assay: cell-based or functional assay

B1: Antibody I (antibody, human IgG4 S228P, kappa, F234A L235A)
heavy: QVQLVQSGAEVKKPGSSVKVSCKASGYTFTDAYINWVRQAPGQGLEWMGWIWPGPVITYYNPKFKGRVTITADKSTSTAYMELSSLRSEDTAVYYCARREVLSPFAYWGQGTTVTVSSASTKGPSVFPLAPCSRSTSESTAALGCLVKDYFPEPVTVSWNSGALTSGVHTFPAVLQSSGLYSLSSVVTVPSSSLGTKTYTCNVDHKPSNTKVDKRVESKYGPPCPPCPAPEAAGGPSVFLFPPKPKDTLMISRTPEVTCVVVDVSQEDPEVQFNWYVDGVEVHNAKTKPREEQFNSTYRVVSVLTVLHQDWLNGKEYKCKVSNKGLPSSIEKTISKAKGQPREPQVYTLPPSQEEMTKNQVSLTCLVKGFYPSDIAVEWESNGQPENNYKTTPPVLDSDGSFFLYSRLTVDKSRWQEGNVFSCSVMHEALHNHYTQKSLSLSLG
light: DIVMTQSPDSLAVSLGERATINCRSSQSIVHSTGNTYLEWYQQKPGQPPKLLIYKVSNRFSGVPDRFSGSGSGTDFTLTISSLQAEDVAVYYCFHGTHVPYTFGGGTKVEIKRTVAAPSVFIFPPSDEQLKSGTASVVCLLNNFYPREAKVQWKVDNALQSGNSQESVTEQDSKDSTYSLSSTLTLSKADYEKHKVYACEVTHQGLSSPVTKSFNRGEC
**Q.** Which results are given for B1?
**A.** Mean Ringspot Total Intensity of Fluorescence (internalization into HT-29 cells), 40 ug/mL, 0 min post addition: 89; Mean Ringspot Total Intensity of Fluorescence (internalization into HT-29 cells), 40 ug/mL, 5 min post addition: 261; Mean Ringspot Total Intensity of Fluorescence (internalization into HT-29 cells), 40 ug/mL, 15 min post addition: 717; Mean Ringspot Total Intensity of Fluorescence (internalization into HT-29 cells), 40 ug/mL, 30 min post addition: 1490; Mean Ringspot Total Intensity of Fluorescence (internalization into HT-29 cells), 40 ug/mL, 60 min post addition: 4130; Mean Ringspot Total Intensity of Fluorescence (internalization into HT-29 cells), 40 ug/mL, 120 min post addition: 4450; Mean Ringspot Total Intensity of Fluorescence (internalization into HT-29 cells), dose 0.34 ug/ml, 2 h at 37 C: 2430; Mean Ringspot Total Intensity of Fluorescence (internalization into HT-29 cells), dose 0.69 ug/ml, 2 h at 37 C: 3440; Mean Ringspot Total Intensity of Fluorescence (internalization into HT-29 cells), dose 1.38 ug/ml, 2 h at 37 C: 4350; Mean Ringspot Total Intensity of Fluorescence (internalization into HT-29 cells), dose 2.75 ug/ml, 2 h at 37 C: 6500; Mean Ringspot Total Intensity of Fluorescence (internalization into HT-29 cells), dose 5.5 ug/ml, 2 h at 37 C: 8470; Mean Ringspot Total Intensity of Fluorescence (internalization into HT-29 cells), dose 11 ug/ml, 2 h at 37 C: 11500; Mean Ringspot Total Intensity of Fluorescence (internalization into HT-29 cells), dose 22 ug/ml, 2 h at 37 C: 15100; Mean Ringspot Total Intensity of Fluorescence (internalization into HT-29 cells), dose 44 ug/ml, 2 h at 37 C: 17500

Source: patent US20210403547A1
